Values belong to the compound of their own block, whether it stands above or below them.
What was measured:
[1] = molecular target: ITK (Homo sapiens, UniProt Q08881); assay: Binding kinetics assay (surface plasmon resonance) ITK; conditions: SPR, 22 °C
Description: (§1) Binding Kinetics Assay wt-BTK, BTK C481S, LCK, FGFR1, FLT3, PDGFR-β, FMS, LYN, MEK1, AUR-B. ITK. VEGFR, EGFR, FGFR3, AXL, c-MET, SRC, YES, ABL, RET and IGFR1 (Surface Plasmon Resonance)
(§2) Streptavidin-coated chips (Cat. No. BR100531), disposables and maintenance kits for Biacore were purchased from Cytiva (Eindhoven, The Netherlands). Biotinylated wt-BTK enzym (Carna Biosciences, cat. no. 08-480-20N), BTK C481S (Carna Biosciences, cat. no. 08-417-20N), LCK (Carna Biosciences, cat. no. 08-470-20N), FGFR1 (Carna Biosciences, cat. no. 08-435-20N), FLT3 (Carna Biosciences, cat. no. 08-454-20N), PDGFR-β (Carna Biosciences, cat. no. 08-458-20N), FMS (Carna Biosciences, cat. no. 08-455-20N), LYN (Carna Biosciences, cat. no. 08-471-20N), MEK1 (Carna Biosciences, cat. no. 07-441-10-20N), AUR-B (Carna Biosciences, cat. no. 05-402-21N), ITK (Carna Biosciences, cat. no. 08-481-20N), VEGFR (Carna Biosciences, cat. no. 08-491-20N), EGFR (Carna Biosciences, cat. no. 08-415-20N), FGFR3 (Carna Biosciences, cat. no. 08-433-20N), AXL (Carna Biosciences, cat. no. 08-407-20N), c-MET (Carna Biosciences, cat. no. 08-451-20N), SRC (Carna Biosciences, cat. no. 08-473-20N), YES (Carna Biosciences, cat. no. 08-475-20N), ABL (Carna Biosciences, cat. no. 08-401-20N), RET (Carna Biosciences, cat. no. 08-459-20N) or IGFR1 (Carna Biosciences, cat. no. 08-441-20N) were immobilized on a streptavidin-coated chip to a level of about 8000 resonance units (RU) using Biacore buffer (50 mM Tris pH 7.5, 0.05% (v/v) Tween-20, 150 mM NaCl and 5 mM MgCl2)+1 mM TCEP. Remaining streptavidin was blocked with biocytin. Immobilization was performed at 4 °C. Subsequent assay steps were conducted at 22 °C. After changing buffer to Biacore buffer with 1% (v/v) dimethylsulfoxide (DMSO), a pre-run was performed for a period of at least 30 min at a flow rate of 30 μl/min to obtain a stable surface. The kinetic constants of the compounds were determined with single cycle kinetics with five consecutive injections with an increasing compound concentration with ranges of 3.16-316 nM. Experiments were performed with an association time of 100 s per concentration and a dissociation time of 1200 s, except for compounds with a long target residence time, such as irreversible inhibitors, where dissociation time was increased. To circumvent problems of mass transport limitation, a flow rate of 30 μl/min was used. A blank run with the same conditions was performed before the compound was injected. The SPR sensorgrams were analyzed with Biacore Evaluation Software by using a method of double referencing. First the reference channel was subtracted from the channel containing immobilized protein. Subsequently, the reference curve obtained with buffer injections was subtracted. The resulting curve was fitted with a 1:1 binding model. Compounds that bound according to an induced fit model were fitted with a two-state reaction model. The kinetic constants (ka, […], KD) of duplicates were geometrically averaged. Target residence time (τ) for the 1:1 binding model was calculated from the dissociation constant kd with the formula T=1/kd. Target residence for an induced fit model was calculated as described (Tummino and Copeland, 2008).

By UniProt entry, the sequences of proteins in these tests, tags left out. Residues count along the entry.
UniProt Q08881, whole entry: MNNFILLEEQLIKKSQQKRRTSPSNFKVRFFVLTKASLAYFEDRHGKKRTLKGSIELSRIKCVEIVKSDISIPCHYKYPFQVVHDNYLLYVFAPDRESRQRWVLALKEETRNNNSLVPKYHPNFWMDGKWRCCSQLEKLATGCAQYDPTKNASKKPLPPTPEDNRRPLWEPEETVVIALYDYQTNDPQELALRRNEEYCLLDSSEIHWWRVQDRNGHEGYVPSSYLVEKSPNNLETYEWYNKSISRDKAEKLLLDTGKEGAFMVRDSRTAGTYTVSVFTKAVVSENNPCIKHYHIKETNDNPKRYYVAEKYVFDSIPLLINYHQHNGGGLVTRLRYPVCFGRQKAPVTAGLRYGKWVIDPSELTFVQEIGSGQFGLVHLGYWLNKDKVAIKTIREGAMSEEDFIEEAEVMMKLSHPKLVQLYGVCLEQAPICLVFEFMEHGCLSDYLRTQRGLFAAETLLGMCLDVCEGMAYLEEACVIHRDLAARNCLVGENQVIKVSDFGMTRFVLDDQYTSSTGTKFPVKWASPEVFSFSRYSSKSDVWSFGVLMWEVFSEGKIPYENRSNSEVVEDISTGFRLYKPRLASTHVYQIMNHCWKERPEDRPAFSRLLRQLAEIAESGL
UniProt P07947, whole entry: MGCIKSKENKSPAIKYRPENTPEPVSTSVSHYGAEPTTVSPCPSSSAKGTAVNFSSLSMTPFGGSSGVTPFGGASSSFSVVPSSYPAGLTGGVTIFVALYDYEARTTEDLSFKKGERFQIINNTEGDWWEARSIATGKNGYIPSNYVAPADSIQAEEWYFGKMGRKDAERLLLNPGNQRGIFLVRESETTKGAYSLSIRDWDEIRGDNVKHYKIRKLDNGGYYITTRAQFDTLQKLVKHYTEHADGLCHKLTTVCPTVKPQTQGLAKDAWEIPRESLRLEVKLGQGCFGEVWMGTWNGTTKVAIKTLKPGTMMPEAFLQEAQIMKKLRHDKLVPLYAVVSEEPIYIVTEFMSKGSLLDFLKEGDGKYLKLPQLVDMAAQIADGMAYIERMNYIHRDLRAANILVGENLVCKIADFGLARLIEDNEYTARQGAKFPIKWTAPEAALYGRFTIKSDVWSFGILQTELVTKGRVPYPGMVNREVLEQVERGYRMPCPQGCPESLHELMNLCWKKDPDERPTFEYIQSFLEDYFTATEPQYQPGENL
UniProt P09619, 33-1106 limits assumed: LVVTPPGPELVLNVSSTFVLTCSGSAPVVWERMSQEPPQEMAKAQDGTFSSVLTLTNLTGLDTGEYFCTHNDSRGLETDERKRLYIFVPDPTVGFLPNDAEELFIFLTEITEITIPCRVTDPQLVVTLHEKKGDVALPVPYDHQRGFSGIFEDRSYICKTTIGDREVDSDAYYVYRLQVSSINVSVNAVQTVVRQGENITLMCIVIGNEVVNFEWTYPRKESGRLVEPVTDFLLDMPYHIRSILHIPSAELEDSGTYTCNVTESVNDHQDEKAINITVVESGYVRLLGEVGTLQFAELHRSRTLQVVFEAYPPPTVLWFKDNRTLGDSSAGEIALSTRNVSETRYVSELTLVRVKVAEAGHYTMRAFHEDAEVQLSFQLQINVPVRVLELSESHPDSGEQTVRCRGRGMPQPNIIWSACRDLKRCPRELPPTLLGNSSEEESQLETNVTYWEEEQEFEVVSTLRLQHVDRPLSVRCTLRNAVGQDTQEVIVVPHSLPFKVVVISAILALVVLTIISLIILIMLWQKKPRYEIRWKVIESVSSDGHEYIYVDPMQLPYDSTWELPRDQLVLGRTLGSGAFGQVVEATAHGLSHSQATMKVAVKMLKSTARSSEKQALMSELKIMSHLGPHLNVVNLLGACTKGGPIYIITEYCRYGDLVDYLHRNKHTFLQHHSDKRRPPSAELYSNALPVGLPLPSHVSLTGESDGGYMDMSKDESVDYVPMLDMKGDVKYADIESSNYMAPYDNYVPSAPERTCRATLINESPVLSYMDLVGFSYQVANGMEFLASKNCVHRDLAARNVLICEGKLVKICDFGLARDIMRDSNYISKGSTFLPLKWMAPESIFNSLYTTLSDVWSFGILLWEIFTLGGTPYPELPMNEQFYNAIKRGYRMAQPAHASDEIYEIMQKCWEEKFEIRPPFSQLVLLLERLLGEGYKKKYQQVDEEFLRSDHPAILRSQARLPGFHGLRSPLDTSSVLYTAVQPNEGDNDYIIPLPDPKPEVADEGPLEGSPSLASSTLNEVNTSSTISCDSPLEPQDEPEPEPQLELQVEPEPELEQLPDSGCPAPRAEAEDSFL
UniProt P06239, whole entry: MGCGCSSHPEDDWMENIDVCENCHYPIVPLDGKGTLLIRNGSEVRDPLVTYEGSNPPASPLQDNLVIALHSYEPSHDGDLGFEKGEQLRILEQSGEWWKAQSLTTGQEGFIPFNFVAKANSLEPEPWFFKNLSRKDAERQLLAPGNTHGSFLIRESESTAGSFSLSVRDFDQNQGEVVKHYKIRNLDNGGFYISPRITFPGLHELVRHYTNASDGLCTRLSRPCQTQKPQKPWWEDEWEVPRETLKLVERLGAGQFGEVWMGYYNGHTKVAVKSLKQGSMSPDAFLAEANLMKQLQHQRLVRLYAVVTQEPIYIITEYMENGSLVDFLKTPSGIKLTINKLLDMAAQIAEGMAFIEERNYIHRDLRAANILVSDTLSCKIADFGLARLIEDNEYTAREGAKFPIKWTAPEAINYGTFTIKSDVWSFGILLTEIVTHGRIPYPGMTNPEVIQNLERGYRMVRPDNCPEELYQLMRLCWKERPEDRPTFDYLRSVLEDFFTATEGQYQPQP
UniProt P12931, whole entry: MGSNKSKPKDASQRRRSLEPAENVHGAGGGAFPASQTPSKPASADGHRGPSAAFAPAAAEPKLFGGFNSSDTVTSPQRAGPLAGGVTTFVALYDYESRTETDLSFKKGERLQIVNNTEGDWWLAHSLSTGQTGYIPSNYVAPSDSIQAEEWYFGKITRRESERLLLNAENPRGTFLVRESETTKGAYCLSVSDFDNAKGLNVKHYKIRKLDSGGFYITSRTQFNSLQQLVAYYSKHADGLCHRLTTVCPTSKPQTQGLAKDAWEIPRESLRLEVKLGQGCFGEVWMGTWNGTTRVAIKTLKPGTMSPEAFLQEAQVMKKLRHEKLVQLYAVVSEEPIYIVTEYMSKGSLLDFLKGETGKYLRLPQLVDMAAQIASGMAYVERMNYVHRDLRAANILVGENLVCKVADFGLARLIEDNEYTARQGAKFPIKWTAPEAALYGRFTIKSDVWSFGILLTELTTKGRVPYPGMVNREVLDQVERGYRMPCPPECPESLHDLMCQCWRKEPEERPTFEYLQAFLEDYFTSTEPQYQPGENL
UniProt P30530, 26-894 limits assumed: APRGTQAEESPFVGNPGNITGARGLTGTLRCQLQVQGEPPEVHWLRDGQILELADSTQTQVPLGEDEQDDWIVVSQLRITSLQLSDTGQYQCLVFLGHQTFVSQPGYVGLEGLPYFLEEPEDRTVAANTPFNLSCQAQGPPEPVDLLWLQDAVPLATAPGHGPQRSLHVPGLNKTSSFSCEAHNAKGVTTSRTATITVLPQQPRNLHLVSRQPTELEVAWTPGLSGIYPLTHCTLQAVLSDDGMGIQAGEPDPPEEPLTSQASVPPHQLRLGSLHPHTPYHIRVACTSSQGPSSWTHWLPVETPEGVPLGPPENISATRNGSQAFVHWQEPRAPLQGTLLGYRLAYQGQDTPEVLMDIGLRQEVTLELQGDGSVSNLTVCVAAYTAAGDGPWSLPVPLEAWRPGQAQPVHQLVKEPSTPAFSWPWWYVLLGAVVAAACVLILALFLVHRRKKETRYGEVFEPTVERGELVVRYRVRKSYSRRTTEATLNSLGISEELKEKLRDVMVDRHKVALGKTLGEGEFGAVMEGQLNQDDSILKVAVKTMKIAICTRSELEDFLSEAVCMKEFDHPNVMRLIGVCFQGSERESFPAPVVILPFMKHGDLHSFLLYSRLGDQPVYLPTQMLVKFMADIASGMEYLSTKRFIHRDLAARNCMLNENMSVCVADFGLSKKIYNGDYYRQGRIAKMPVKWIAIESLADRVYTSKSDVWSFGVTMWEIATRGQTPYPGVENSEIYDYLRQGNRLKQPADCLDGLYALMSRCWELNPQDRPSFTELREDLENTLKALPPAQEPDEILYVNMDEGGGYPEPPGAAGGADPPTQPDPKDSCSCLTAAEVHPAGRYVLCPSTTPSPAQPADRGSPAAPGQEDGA
UniProt P00533, 25-1210 limits assumed: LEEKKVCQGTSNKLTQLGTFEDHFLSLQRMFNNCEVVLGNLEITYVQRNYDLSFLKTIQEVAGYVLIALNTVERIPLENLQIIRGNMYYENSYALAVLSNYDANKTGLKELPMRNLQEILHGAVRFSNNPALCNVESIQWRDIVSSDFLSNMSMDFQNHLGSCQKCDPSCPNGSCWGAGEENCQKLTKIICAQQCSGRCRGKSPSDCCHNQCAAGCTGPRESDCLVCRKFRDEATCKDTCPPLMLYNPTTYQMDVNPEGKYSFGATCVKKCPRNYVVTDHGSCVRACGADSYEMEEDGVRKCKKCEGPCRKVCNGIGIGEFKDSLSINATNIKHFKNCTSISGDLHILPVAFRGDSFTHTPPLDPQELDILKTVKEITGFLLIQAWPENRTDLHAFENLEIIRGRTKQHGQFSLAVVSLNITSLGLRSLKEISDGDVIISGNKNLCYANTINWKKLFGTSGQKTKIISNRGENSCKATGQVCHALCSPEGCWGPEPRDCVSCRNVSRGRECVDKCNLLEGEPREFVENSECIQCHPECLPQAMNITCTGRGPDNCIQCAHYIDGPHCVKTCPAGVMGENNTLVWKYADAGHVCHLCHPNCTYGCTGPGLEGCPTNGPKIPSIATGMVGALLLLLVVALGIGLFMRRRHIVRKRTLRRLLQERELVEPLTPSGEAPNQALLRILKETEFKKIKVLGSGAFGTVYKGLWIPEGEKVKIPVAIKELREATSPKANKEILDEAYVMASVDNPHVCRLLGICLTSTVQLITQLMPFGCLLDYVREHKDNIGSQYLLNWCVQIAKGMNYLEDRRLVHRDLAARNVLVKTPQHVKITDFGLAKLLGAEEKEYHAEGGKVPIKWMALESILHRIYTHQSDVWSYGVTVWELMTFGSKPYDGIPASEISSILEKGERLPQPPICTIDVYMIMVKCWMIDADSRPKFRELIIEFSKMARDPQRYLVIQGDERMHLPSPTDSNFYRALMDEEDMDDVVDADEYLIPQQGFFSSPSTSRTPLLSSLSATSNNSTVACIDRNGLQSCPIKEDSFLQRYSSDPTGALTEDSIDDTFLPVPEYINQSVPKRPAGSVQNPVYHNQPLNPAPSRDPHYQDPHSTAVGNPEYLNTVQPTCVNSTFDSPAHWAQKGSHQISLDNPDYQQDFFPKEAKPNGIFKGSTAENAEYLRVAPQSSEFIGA
UniProt P07949, 29-1114 limits assumed: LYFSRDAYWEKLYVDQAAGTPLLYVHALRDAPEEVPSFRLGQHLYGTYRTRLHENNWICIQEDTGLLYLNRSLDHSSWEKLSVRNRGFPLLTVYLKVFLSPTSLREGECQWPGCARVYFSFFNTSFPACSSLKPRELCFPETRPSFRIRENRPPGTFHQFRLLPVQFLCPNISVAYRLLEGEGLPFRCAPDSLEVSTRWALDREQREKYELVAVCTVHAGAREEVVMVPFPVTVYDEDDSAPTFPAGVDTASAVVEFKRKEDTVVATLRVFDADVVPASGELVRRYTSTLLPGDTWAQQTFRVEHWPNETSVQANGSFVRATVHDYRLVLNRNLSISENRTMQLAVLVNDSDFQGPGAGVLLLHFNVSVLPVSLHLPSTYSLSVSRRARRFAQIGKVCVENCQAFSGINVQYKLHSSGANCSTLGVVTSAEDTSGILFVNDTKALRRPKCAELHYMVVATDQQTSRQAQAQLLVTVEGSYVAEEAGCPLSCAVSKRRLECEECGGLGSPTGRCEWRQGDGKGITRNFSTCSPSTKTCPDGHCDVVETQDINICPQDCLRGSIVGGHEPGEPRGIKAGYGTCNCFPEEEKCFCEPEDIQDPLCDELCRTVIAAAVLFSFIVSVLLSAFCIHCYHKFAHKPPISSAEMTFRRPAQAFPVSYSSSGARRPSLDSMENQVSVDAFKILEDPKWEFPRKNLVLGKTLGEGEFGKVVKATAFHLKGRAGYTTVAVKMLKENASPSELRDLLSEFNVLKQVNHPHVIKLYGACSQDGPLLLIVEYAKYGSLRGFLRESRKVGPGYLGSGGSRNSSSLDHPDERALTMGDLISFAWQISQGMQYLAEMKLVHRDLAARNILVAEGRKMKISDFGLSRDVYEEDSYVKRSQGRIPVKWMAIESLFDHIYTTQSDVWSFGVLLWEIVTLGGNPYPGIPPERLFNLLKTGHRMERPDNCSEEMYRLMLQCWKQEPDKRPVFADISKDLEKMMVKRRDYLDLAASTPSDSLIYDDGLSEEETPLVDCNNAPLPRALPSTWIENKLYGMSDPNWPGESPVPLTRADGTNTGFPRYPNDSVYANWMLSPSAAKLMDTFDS

[2] = molecular target: YES (Homo sapiens, UniProt P07947); assay: Binding kinetics assay (surface plasmon resonance) YES; conditions: SPR, 22 °C
Description: as §1, §2

[3] = molecular target: Fms (Homo sapiens, UniProt P07333); assay: Binding kinetics assay (surface plasmon resonance) FMS; conditions: SPR, 22 °C
Description: as §1, §2

[4] = molecular target: PDGFrB (Homo sapiens, UniProt P09619); assay: Binding kinetics assay (surface plasmon resonance) PDGFR-β; conditions: SPR, 22 °C
Description: as §1, §2

[5] = molecular target: LCK (Homo sapiens, UniProt P06239); assay: Binding kinetics assay (surface plasmon resonance) LCK; conditions: SPR, 22 °C
Description: as §1, §2

[6] = molecular target: SRC (Homo sapiens, UniProt P12931); assay: Binding kinetics assay (surface plasmon resonance) SRC; conditions: SPR, 22 °C
Description: as §1, §2

[7] = molecular target: AXL (Homo sapiens, UniProt P30530); assay: Binding kinetics assay (surface plasmon resonance) AXL; conditions: SPR, 22 °C
Description: as §1, §2

[8] = molecular target: EGFR (Homo sapiens, UniProt P00533); assay: Binding kinetics assay (surface plasmon resonance) EGFR; conditions: SPR, 22 °C
Description: as §1, §2

[9] = tested on: REC-1 mantle cell lymphoma cells; assay: Cell proliferation assay REC-1; conditions: read-out: IC50 value, REC-1 cells, 120 hours
Experimental: REC-1 mantle cell lymphoma cells were purchased from Deutsche Sammlung von Mikroorganismen und Zellkulturen (cat. no. ACC 584, DSMZ) and cultured in RPMI-1640 cell culture medium (cat. no. 61870036, Life Technologies), supplemented with 18% (v/v) fetal bovine calf serum and 1% penicillin/streptavidin. 1200 cells per well (in 45 μl) were seeded in a white 384-well culture plate (cat. no. 781080, Greiner Bio-One) and allowed to rest for at least 5 hours at 37 °C, 95% humidity, and 5% CO2. 5 μl compound solution was added to the cells and incubation was continued for 120 hours (5 days), followed by addition of 24 μl ATPlite 1Step™ (PerkinElmer, Groningen, The Netherlands) solution was added to each well. Luminescence was recorded on an Envision multimode reader. The cell signal at the start of incubation was recorded separately in order to distinguish between cell population growth and cell death. In addition, maximum growth was determined by incubation of a duplicate without compound in the presence of 0.3% DMSO. Percentage growth was used as the main y-axis signal. IC50s were fitted by non-linear regression using IDBS XLfit™5 using a 4-parameter logistic curve, yielding a maximum signal, minimum signal, hill-parameter and IC50.

[10] = molecular target: RET (Homo sapiens, UniProt P07949); assay: Binding kinetics assay (surface plasmon resonance) RET; conditions: SPR, 22 °C
Description: as §1, §2

[11] = tested on: KG-1 acute myeloid leukemia cells; assay: Cell proliferation assay KG-1; conditions: read-out: IC50 value, KG-1 cells, 72 hours
Experimental: KG-1 acute myeloid leukemia cells were purchased from American Type Culture Collection (cat. no. CCL-246, ATCC). Frozen stocks were thawed and cells were diluted in IMDM cell culture medium (cat. no. 31980022, Life Technologies), supplemented with 20% (v/v) fetal calf serum and 1% penicillin/streptavidin. 3200 cells per well (in 45 μl) were seeded in a white 384-well culture plate (cat. no. 781080, Greiner Bio-One) and allowed to rest for 24 hours at 37 °C, 95% humidity, and 5% CO2. 5 μl compound solution was added to the cells and incubation was continued for 72 hours (3 days), followed by addition of 24 μl ATPlite 1Step™ (PerkinElmer, Groningen, The Netherlands) solution was added to each well. Luminescence was recorded on an Envision multimode reader. The cell signal at the start of incubation was recorded separately in order to distinguish between cell population growth and cell death. In addition, maximum growth was determined by incubation of a duplicate without compound in the presence of 0.3% DMSO. Percentage growth was used as the main y-axis signal.
IC50s were fitted by non-linear regression using IDBS XLfit™5 using a 4-parameter logistic curve, yielding a maximum signal, minimum signal, hill-parameter and IC50.

Kd [3]: 0.05 to 0.5 µM | Target residence time Tau (τ) [3]: A (τ between 0.2 h and 1 h) | Kd [4]: 0.005 to 0.05 µM | Target residence time Tau (τ) [4]: A (τ between 0.2 h and 1 h)
SMILES: C[C@@H]1CCn2nc(-c3ccc(NC(=O)Nc4cc(C(C)(C)C)on4)cc3)c3c(N)ncc(c32)/C=C/CCOCCC(=O)N1

Kd [5]: < 0.005 µM | Target residence time Tau (τ) [5]: A (τ between 0.2 h and 1 h) | Kd [4]: 0.005 to 0.05 µM | Target residence time Tau (τ) [4]: A (τ between 0.2 h and 1 h) | Kd [6]: 0.005 to 0.05 µM | Target residence time Tau (τ) [6]: B (τ between 1 and 3 h) | Kd [2]: 0.005 to 0.05 µM | Target residence time Tau (τ) [2]: B (τ between 1 and 3 h)
SMILES: C[C@@H]1CCn2nc(-c3cnc4[nH]ccc4c3)c3c(N)ncc(c32)/C=C/CCOCCC(=O)N1

Kd [7]: < 0.005 µM | Target residence time Tau (τ) [7]: B (τ between 1 and 3 h) | Kd [8]: 0.005 to 0.05 µM | Target residence time Tau (τ) [8]: A (τ between 0.2 h and 1 h)
SMILES: C[C@@H]1CCn2nc(-c3ccc(OCc4cccc(F)c4)c(Cl)c3)c3c(N)ncc(c32)/C=C/CCOCCC(=O)N1

Kd [7]: 0.005 to 0.05 µM | Target residence time Tau (τ) [7]: A (τ between 0.2 h and 1 h) | Kd [5]: 0.005 to 0.05 µM | Target residence time Tau (τ) [5]: A (τ between 0.2 h and 1 h) | Kd [6]: 0.005 to 0.05 µM | Target residence time Tau (τ) [6]: A (τ between 0.2 h and 1 h) | Kd [2]: < 0.005 µM | Target residence time Tau (τ) [2]: B (τ between 1 and 3 h)
SMILES: C[C@@H]1CCn2nc(-c3ccc(NS(=O)(=O)c4ccccc4F)c(F)c3)c3c(N)ncc(c32)/C=C/CCOCCC(=O)N1

Kd [8]: < 0.005 µM | Target residence time Tau (τ) [8]: A (τ between 0.2 h and 1 h)
SMILES: C[C@@H]1CCn2nc(-c3cccc(OCc4ccccc4)c3)c3c(N)ncc(c32)/C=C/CCOCCC(=O)N1

IC50 [9]: < 0.05 µM
SMILES: C[C@@H]1CCn2nc(-c3ccc(C(=O)Nc4cc(C(F)(F)F)ccn4)cc3)c3c(N)ncc(c32)/C=C/CCCCC(=O)N1

Continued, compound first:

SMILES: Cc1cc(NC(=O)c2cccc(-c3nn4c5c(cnc(N)c35)/C=C/CCOCCC(=O)N[C@@H]3CCC[C@@H]4C3)c2)ccc1C(C)C
Kd [1]: 0.005 to 0.05 µM | Target residence time Tau (τ) [1]: A (τ between 0.2 h and 1 h)

SMILES: C[C@@H]1CCn2nc(-c3cnc4[nH]ccc4c3)c3c(N)ncc(c32)/C=C/CCCCCC(=O)N1
Kd [2]: < 0.005 µM | Target residence time Tau (τ) [2]: B (τ between 1 and 3 h)

SMILES: Nc1ncc2c3c1c(-c1ccc(C(=O)Nc4cc(C(F)(F)F)ccn4)cc1)nn3[C@@H]1CCC[C@H](C1)C(=O)NCCCCCCC2
IC50 [9]: < 0.05 µM

SMILES: Nc1ncc2c3c1c(-c1ccc(C(=O)Nc4cc(C(F)(F)F)ccn4)cc1)nn3[C@@H]1CCC[C@H](C1)NC(=O)COCC/C=C/2
IC50 [9]: < 0.05 µM

SMILES: Nc1ncc2c3c1c(-c1ccc(C(=O)Nc4cc(C(F)(F)F)ccn4)cc1)nn3[C@@H]1CCC[C@H](C1)C(=O)NCCCC/C=C/2
IC50 [9]: < 0.05 µM

SMILES: C[C@@H]1CCn2nc(-c3ccc(NS(=O)(=O)c4ccccc4F)c(F)c3)c3c(N)ncc(c32)/C=C/CCCCCC(=O)N1
Kd [7]: < 0.005 µM | Target residence time Tau (τ) [7]: A (τ between 0.2 h and 1 h)

SMILES: Nc1ncc2c3c1c(-c1ccc(C(=O)Nc4cc(C(F)(F)F)ccn4)cc1)nn3[C@@H]1CCC[C@H](C1)NC(=O)CCCC/C=C\C2
IC50 [9]: < 0.05 µM

SMILES: Nc1ncc2c3c1c(-c1ccc(C(=O)Nc4cc(C(F)(F)F)ccn4)cc1)nn3[C@@H]1CCC[C@H](C1)NC(=O)CCCC/C=C/2
IC50 [9]: < 0.05 µM

SMILES: Nc1ncc2c3c1c(-c1ccc(C(=O)Nc4cc(C(F)(F)F)ccn4)cc1)nn3[C@@H]1CCC[C@H](C1)NC(=O)CCNCC/C=C/2
Kd [1]: < 0.005 µM | Target residence time Tau (τ) [1]: A (τ between 0.2 h and 1 h) | IC50 [9]: < 0.05 µM

SMILES: Cc1cc(NC(=O)c2cccc(-c3nn4c5c(cnc(N)c35)/C=C/CCCCCNC(=O)[C@@H]3CCC[C@@H]4C3)c2)ccc1C(C)C
Kd [1]: 0.005 to 0.05 µM | Target residence time Tau (τ) [1]: A (τ between 0.2 h and 1 h)

SMILES: Nc1cc(-c2nn3c4c(cnc(N)c24)/C=C/CCCCCCC(=O)N2CCC[C@@H]3C2)c(F)cc1Cl
Kd [10]: < 0.005 µM | Target residence time Tau (τ) [10]: A (τ between 0.2 h and 1 h) | IC50 [11]: < 0.3 µM

SMILES: Cc1cc(NC(=O)c2cccc(-c3nn4c5c(cnc(N)c35)/C=C/CCCCCC(=O)N[C@@H]3CCC[C@@H]4C3)c2)ccc1C(C)C
Kd [1]: 0.005 to 0.05 µM | Target residence time Tau (τ) [1]: B (τ between 1 and 3 h)

SMILES: CC(C)(C)c1cc(NC(=O)Cc2ccc(-c3nn4c5c(cnc(N)c35)/C=C/CCCCCCC(=O)N3CCC[C@@H]4C3)cc2)no1
Kd [10]: 0.005 to 0.05 µM | IC50 [11]: < 0.3 µM

SMILES: Nc1ncc2c3c1c(-c1ccc(C(=O)Nc4cc(C(F)(F)F)ccn4)cc1)nn3[C@@H]1CCCN(C1)C(=O)CCCCCC/C=C/2
IC50 [9]: < 0.05 µM
